# scFv variants of Ab-14 (light chain) against a SARS-CoV-2 spike peptide

Reference: Li et al. 2023, doi:10.1038/s41467-023-39022-2. File: FLAb, binding data.

Target peptide (SARS-CoV-2 spike, HR2 region): PDVDLGDISGINAS

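The variants were designed computationally from a first round of random CDR variants and then made and measured. Several design methods are mixed in this list. The scFvs were displayed on barcoded MATa yeast, the peptide on MATalpha yeast. Binding brings cells together so that they mate, and sequencing counts the barcode pairs among the diploids. A regression on co-assayed BCL2-family reference pairs converts the normalised counts of each replicate to an apparent Kd. The assay was run in six technical replicates.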

Each scFv is VH, a 15-residue (Gly4Ser)3 linker, VL, as in the parent Ab-14, and differs from it in the CDRs of the light chain only.
VH: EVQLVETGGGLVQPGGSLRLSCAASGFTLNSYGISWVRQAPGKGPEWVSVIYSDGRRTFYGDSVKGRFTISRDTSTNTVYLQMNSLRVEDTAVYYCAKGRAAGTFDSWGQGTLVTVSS
VL: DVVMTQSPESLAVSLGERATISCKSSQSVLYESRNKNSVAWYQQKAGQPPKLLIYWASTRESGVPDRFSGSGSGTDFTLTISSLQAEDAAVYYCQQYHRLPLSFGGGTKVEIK

The parent's light chain CDRs are KSSQSVLYESRNKNSVA, WASTRES, QQYHRLPLS; each variant's own CDRs replace them letter for letter. The Kd shown is the geometric mean over detected replicates; a lower Kd is a better binder. The range of this assay differs from that of the first round, and the authors advise against merging the two. Three control strains display no target. For all light chain designs, 4% of the pairings with them gave a signal, with a median of 430 nM and one signal in twenty below 38 nM, so weak values seen in few replicates may be background. Of ten entries with the parent sequence, four were seen in most replicates (averages 2.2 nM to 240 nM), three in one and three in none, so single entries are noisy. The authors averaged sequences with at least three values out of six and counted those with two or fewer as poor binders.

HLSWSVLYESRNKNSVA / NASTRES / QQYHRLPLS: 860 pM (6 of 6 replicates).
MLSQMWAIGLKVSNSVA / QASMRFN / QQYDRLPLI: 210 nM (3 of 6 replicates).
KLQQSVLYESRNKNNVA / HASTRES / QQYHRLPLS: 3.7 nM (6 of 6 replicates).
MLSQMWALGMKVKNSVA / QANMRFN / QQYDRLPLI: 64 nM (3 of 6 replicates).
MSYMGDMLESVTRNSVA / NAETRED / QDYHRLPLS: 6.3 nM (5 of 6 replicates).
KLRQQTLYESRNKNSVA / EASTREE / QQYHRLPLS: 560 pM (6 of 6 replicates).
KFQGSVMMGDRNKNSVA / WASTRLS / QQYHRLPLS: 9.5 nM (6 of 6 replicates).
MISQAFLIGMKAKNSVA / QTNTREE / QQYDRLPLI: 6.7 nM (6 of 6 replicates).
ALSQSADMTSRNVNSVA / DLTTREN / QQYHRLPLS: 4.0 nM (6 of 6 replicates).
KLSQSVLYEDRNKNSVA / NASTRCS / QQYHRLPLS: 770 pM (6 of 6 replicates).
NLVGRVPDMYDGRNAIA / DMHCRAG / QQYERLPLA: 140 nM (3 of 6 replicates).
KSSISDLGESRNKNSVA / EASTRES / QQYHRLPLS: 980 pM (6 of 6 replicates).
KSSESMLYESRNKNSVA / WASTRVS / QQYHRLPLS: 24 nM (6 of 6 replicates).
KLTATMRFEQKISNNIA / EVTTRSK / QQYYRLPLS: 3.2 nM (6 of 6 replicates).
KVSQSHLYESRNKNAVA / EASQRES / QQYHRLPLS: 230 pM (6 of 6 replicates).
QLSSITGHQSMIKNNVA / EMETREN / QQYDRLPLS: 3.7 nM (6 of 6 replicates).
KLSQSWLYESRNKNSVA / NASTRES / QQYHRLPLS: 540 pM (6 of 6 replicates).
KLQQSVGYESRNKNSVA / NASQRES / QQYHRLPLS: 1.0 nM (6 of 6 replicates).
KSSQSPLYESRNKNSVA / WASTRES / QQYHRLPFS: 710 nM (3 of 6 replicates).
KSSQSVLYPSRNKNSVA / WASTREM / QQYHRLPLS: 150 nM (4 of 6 replicates).
LISGVWDYGSRNYNSVA / QTSTREK / QQYDRLPLE: 7.4 nM (6 of 6 replicates).
KLSQSWLYESRNKNSVA / GASAREV / QQYHRLPLS: 4.4 nM (6 of 6 replicates).
RISAHVYDETNTQENVA / NEHIRAN / QQYSRLPLS: 2.8 nM (6 of 6 replicates).
KLYCGVDYGDRNKNQVA / HASQRES / QQYHRLPLS: 3.4 nM (6 of 6 replicates).
KVEQSELYESRNKNSVA / NASTRES / QQYHRLPLS: 410 pM (6 of 6 replicates).
KLTNVTGTEKVHGNNVA / EMETRER / QQYNRLPLS: 7.0 nM (6 of 6 replicates).
KIQWYQLEMRDPGSAVA / EASVRYN / QQYMRLPLE: 16 nM (2 of 6 replicates).
KLYQSGLYESRNKNSVA / NASTRES / QQYHRLPLS: 1.2 nM (6 of 6 replicates).
SLYEAMQTGGLHTSNIA / DANQQMR / QHYMRLPLA: 1.5 nM (6 of 6 replicates).
KSSQSVLKESRNQNSVA / WASTQES / QQYHRLPLS: 250 nM (1 of 6 replicates).
KSSQSVLYESPNKNSVA / WAETRES / QQYHRLPLS: 97 nM (5 of 6 replicates).
KISMMVGTKGGARNSVA / NEETRYD / QQYHRLPLS: 760 pM (6 of 6 replicates).
KKRQSVLYESRNKNSIA / DASTRCS / AQYHRLPLS: 20 nM (6 of 6 replicates).
KLRQSTRYESRNKNSVA / NASTRLS / QQYHRLPLS: 3.0 nM (6 of 6 replicates).
KLHQSVLYESRNKNSVA / NASTRES / QQYHRLPLS: 610 pM (6 of 6 replicates).
KFSQSDDYEDRNKNSVA / EGSTRSS / QQYHRLPLS: 1.0 nM (6 of 6 replicates).
KLSSSMLYESRNKNSVA / NASTRES / QQYHRLPLS: 1.1 nM (6 of 6 replicates).
KISSLTMYESVAKNNIA / EMSTRPS / QSYHRLPLS: 4.4 nM (6 of 6 replicates).
KSSKSVLYESINKNSVA / WASTREN / QQYHRLPLS: 55 nM (5 of 6 replicates).
KLGYPSYGEVNGKHNIA / EMDQLTF / QQYSHLPLT: 130 nM (6 of 6 replicates).
KITGTMRFEQKASNNIA / EVTTRSK / QQYYRLPLS: 2.2 nM (6 of 6 replicates).
MLSMVTEGMVRKHDSVA / DNSTRES / QQYDRLPLS: 5.9 nM (6 of 6 replicates).
KISQAYLYESRNKNSVA / QANYREQ / QQYHRLPLS: 500 pM (6 of 6 replicates).
HISQMMMYGSCNKNNVA / QVSLRGE / QQYHRLPLS: 2.6 nM (6 of 6 replicates).
KLSQSELYESRNKNSVA / SASTRES / QQYHRLPLS: 830 pM (6 of 6 replicates).
TLDLWTSYGNGENKAIA / DVSIKDY / QQYARLPLL: 3.6 nM (6 of 6 replicates).
KLRLHNLMFYENENSIA / DVSNRAY / QQYYHLPLN: 45 nM (6 of 6 replicates).

Excerpt, the final 5 entries:

CDR-L1	CDR-L2	CDR-L3	Kd	detected
KISQAYLYESRNKNSVA	QANYREQ	QQYHRLPLS	500 pM	6 of 6
HISQMMMYGSCNKNNVA	QVSLRGE	QQYHRLPLS	2.6 nM	6 of 6
KLSQSELYESRNKNSVA	SASTRES	QQYHRLPLS	830 pM	6 of 6
TLDLWTSYGNGENKAIA	DVSIKDY	QQYARLPLL	3.6 nM	6 of 6
KLRLHNLMFYENENSIA	DVSNRAY	QQYYHLPLN	45 nM	6 of 6